Literature values, collected in paper PMC8339067 (NPJ Breast Cancer, 2021).

System: HER2+ advanced breast cancer
Set-up: method as in PMID 33002436
Conditions: control group, previously treated with a taxane and trastuzumab; cited from earlier work

T-DM1 plus placebo: Control group of KATE2: antibody-drug conjugate T-DM1 given with placebo
Median PFS: 6.8 months
